Biological target: T1, human bradykinin B2 receptor (Homo sapiens, UniProt P30411)
T1 construct: expressed in transfected cells; host or cells: Saccharomyces cerevisiae strain YEW3 (Gpa1/Gαq transplant), episomal vector p426GPD
Test: Double reporter gene assay (antagonist format), yeast strain YEW3 (Gpa1/Gαq)
Type: cell-based
Conditions: each well 1 nM bradykinin agonist plus dilutions of antagonist; 2 mM 3-AT; FIG. 5
Description: All measurements are averages from triplicate determinations.
Yeast strain YLJ21 was transformed either with the empty vector p426GPD or with human GPCRs EDG1 and EDG5 which had been cloned into p426GPD. The transformed yeasts were then cultivated in 2 ml of SC/Gluc-Ura at 30° C. overnight. […] The plates were incubated with shaking (700 rpm) at 30° C. for 23 h. The turbidity resulting from growth of the yeast cells was measured at 630 nm in the photometer (FIGS. 3A and B, in each case left-hand graph). This was followed by adding 50 μl of assay mix per well.
The yeast strain YEW3 (Gpa1/Gαq) was transformed either with the empty vector p426GPD or the human bradykinin B2 receptor cloned into p426GPD. The assay was carried out in a similar way to example 2. The only difference was that each well of the test plate contained 1 nM bradykinin agonist, to which dilutions of the antagonist HOE140 (Sigma; Hall, Gen.Pharmacol. 28,1-6 (1997)) had been added. […] Thus the double reporter gene assay is also suitable for antagonist assays.

Protein sequences, listed by entry. Tags and fused reporters are not part of them.
UniProt P30411, whole entry: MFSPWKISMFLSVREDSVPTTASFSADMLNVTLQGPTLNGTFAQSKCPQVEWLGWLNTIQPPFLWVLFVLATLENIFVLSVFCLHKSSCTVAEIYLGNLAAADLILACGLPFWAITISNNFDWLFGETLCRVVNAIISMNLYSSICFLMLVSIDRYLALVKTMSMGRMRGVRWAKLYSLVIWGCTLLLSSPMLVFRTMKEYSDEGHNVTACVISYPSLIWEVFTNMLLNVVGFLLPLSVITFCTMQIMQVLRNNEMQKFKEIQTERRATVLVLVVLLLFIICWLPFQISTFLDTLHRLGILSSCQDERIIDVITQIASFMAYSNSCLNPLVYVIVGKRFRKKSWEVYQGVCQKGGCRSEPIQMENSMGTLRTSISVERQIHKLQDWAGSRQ

HOE140 was tested, and the “effect on the signal caused by bradykinin (β-galactosidase activity, absorption at 574 nm)” value was “suppress the signal caused by bradykinin to the background level”.
